Assay results: patent publication US11028127B2, “Peptides capable of reactivating p53 mutants” (Yeda Research and Development Co. Ltd., priority 2013, dated 2021)

System: Mut-p53
Test: Total activity score over combined assays (Table 8)
Parameters: scale not given here
Text: Several alternative and complementary methods to screen lead peptide candidates for conformational and functional effects on Mut-p53 were employed. For increased penetration of peptide across cell membranes each peptide contains 3-6 Arginine residues either as part of its sequence or added either at its N-terminus or its C-terminus. 40 peptides were also conjugated to myristoil fatty acid (myr) for enhanced fusion with cell membranes that would potentially lead to better delivery into cells. In-vitro based assays for evaluation were first performed, such as ELISA for assessment of p53 conformation and sequence-specific DNA binding of p53. Subsequently, the peptides' activity was examined in live cells by viability assays, p53 transcriptional activity on a luciferase reporter gene, and examination of p53 target genes in-vivo. Combination of these assays (all performed in a 96 well format) allowed the identification and validation of the peptides' effects on different p53 activities and their ability to confer such ability to Mut-p53 proteins.

**Q.** pCAP8 (LTFEHYWAQLTS) was tested. Which “Activity Score” value (Table 10 summary of activity of the peptides tested) did it give?
**A.** The value was 0.

**Q.** What about the “AS (Activity Score)” value (total score of Table 7) of the same substance?
**A.** The value was 0.
